{"source": "patent US9764037B2", "about": "“Conjugate compounds” (Victoria Link Limited, priority 2012, dated 2017)", "tested_on": "syngeneic splenocytes loaded with SIINFEKL", "experiment": "Peptide-specific T cell-mediated cytotoxicity in vivo, VITAL assay, […] (FIGS. 3, 4)", "design": "species or system mice", "method": "The compounds are injected to give the equivalent molar dose of […] (SEQ ID NO:262) peptide, in each case of 0.571 nmol. […] To discriminate the targets from host tissue, the injected cells are labelled with the fluorescent dye carboxyfluorescein succinimidyl ester (CFSE). A cohort syngeneic splenocytes (without peptide) labelled with the fluorescent dye cell tracker orange are also injected to serve as controls. Killing is defined as the percentage of peptide-loaded targets killed relative to control cells. Each treatment group contained 5 animals. Control animals are injected with the diluent phosphate-buffered saline (PBS).\nCytotoxic activity is assessed as in FIG. 3. Mean percentage of killing per group±SEM are shown."}
{"substance": "(2S,3S,4R)-1-O-α-D-Galactopyranosyl-4-hexacosanoyl-2-((4-(2-(FFRKSIINFEKL)-2-oxoethoxy)imino)pentanoyloxy)methoxycarbonylamino) octadecane-1,3,4-triol [CN152]", "values": [{"measurement": "cytotoxic capacity of SIINFEKL-specific T cells (killing of peptide-loaded target cells in vivo)", "setting": "0.571 nmol intravenously, targets injected 7 days after vaccination, FIGS. 3 and 4", "result": "greater cytotoxic capacity"}, {"measurement": "dependence of the cytotoxic T cell response on CD1d / NKT cells", "setting": "CD1d-deficient mice, FIG. 3", "result": "CD1d dependent"}]}
